# AlphaSeq binding of Ab-14 light chain variants to a spike HR2 peptide

The measurements come from Engelhart et al. 2022 (doi:10.1038/s41597-022-01779-4) through the FLAb antibody collection.

Target peptide (SARS-CoV-2 spike, HR2 region): PDVDLGDISGINAS

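The parent was found by panning a naive human phage display library on the peptide. AAYL50 was designed without a model: most single CDR substitutions and a random sample of double and triple ones. AlphaSeq pools MATa yeast showing the antibodies with MATalpha yeast showing the peptide. Pairs that bind mate more often; barcode pairs of the diploids are counted by sequencing. The ratio of observed to expected reads was calibrated, replicate by replicate, on BCL2-family standards whose Kd was known from biolayer interferometry. There are three technical replicates.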

The variants keep the heavy chain, the linker and the frameworks of Ab-14 (scFv order VH, a (GGGGS)3 linker, VL).
VH: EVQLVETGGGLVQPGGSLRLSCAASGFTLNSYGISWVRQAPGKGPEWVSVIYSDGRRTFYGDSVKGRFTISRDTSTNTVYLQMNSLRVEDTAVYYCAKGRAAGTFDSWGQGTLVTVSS
VL: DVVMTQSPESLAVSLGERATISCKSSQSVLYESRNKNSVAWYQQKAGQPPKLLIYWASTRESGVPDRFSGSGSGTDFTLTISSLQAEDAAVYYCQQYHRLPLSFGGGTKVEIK

Variants are written as CDR1, CDR2 and CDR3 of the light chain (limits as in the source). Parent: KSSQSVLYESRNKNSVA, WASTRES, QQYHRLPLS.
Each Kd is an estimate from the mating assay, the geometric mean of the replicates in which the pair was seen; lower is stronger.
"no signal" means that the variant was in the library but no mating with the target was seen in any replicate; the authors take this as a sign of poor binding, and no number exists.

apparent Kd	seen in	empty controls	CDR-L1	CDR-L2	CDR-L3
no signal	0/3	2/9	KSSQSVLYESMNKNSVR	WASTRES	QQYHWLPLS
no signal	0/3	1/9	KSSQSVLYINRNKNSVA	WASTRES	QLYHRLPLS
6.9 nM	3/3	1/9	KSSQSVLYESTNKNSVA	WTSTRES	QQYHRLPRS
510 nM	3/3	5/9	NSSQSWLYESRNKNSVA	WASTRES	QQYHRLPMS
200 nM	3/3	0/9	HSSQSVPWESRNKNSVA	WASTRES	QQYHRLPLS
11 nM	3/3	3/9	KSSQSQMYESRNKNSVA	WASTRES	QQYTRLPLS
30 µM	1/3	3/9	KSSNSVLYESRNKNSVA	WASTRES	VQYHRLPPS
47 µM	2/3	1/9	KSSQSDLYESRNKNSVA	WAQTMES	QQYHRLPLS
4.7 nM	3/3	1/9	KTSQSVGYESRNKNSVA	WASTRES	QQVHRLPLS
no signal	0/3	2/9	KSSCSVLYESRNKNSVA	WASTRES	QQYHRLATS
18 nM	3/3	0/9	KSSISVLYESRNINSVA	WASTRES	QQYHRLPWS
20 µM	1/3	6/9	KSSQSVLYESRGKNSVA	WYSTRES	QQYHRLPLV
160 nM	3/3	5/9	KSDQSVLYESRNKNSVA	WASRRES	QQYHRIPLS
no signal	0/3	0/9	KSSQSVLYESRNKNSVA	WASTRYS	QQYHKLPLS
no signal	0/3	1/9	KSSQSVEYESRNKNSVA	WASTRES	QSEHRLPLS
170 µM	1/3	1/9	KSYQSVLYESRNKNSVY	WASTRES	QQWHRLPLS
1.1 µM	3/3	1/9	RSSQSVLYESRNKNSVA	WASTRES	QHYHRLPLS
23 nM	3/3	1/9	KSSQSVLYESFNKNSVA	WASTRES	QQYERLPMS
4.5 µM	1/3	1/9	KSSQSVLYESRNKNSVA	WASTREH	TQYHRLPNS
no signal	0/3	0/9	KKSQSVLYESRNKNSVA	WASTDES	QQYHRLPLS
160 nM	3/3	4/9	KSSQKVLYESKNKNSVA	WASTRES	QQYHRLPLS
70 µM	2/3	5/9	KSSQSVLYESRDKNSVL	WASTRES	QQYHRLPLS
30 nM	3/3	0/9	KSSQSVLYESRNKNSVA	WAATRES	VQYHRLPLS
no signal	0/3	1/9	KSSQIVLYESRNKNSVA	WASNRES	QQYHWLPLS
no signal	0/3	0/9	KSSQSVLYEARNKNSWA	WASTRES	TQYHRLPLS
36 µM	3/3	6/9	KHSQSVLYESYNKNSVA	WASTRES	QQYHWLPLS
18 nM	3/3	3/9	KSSQSVLPESINKNSVA	WASTRES	QQYHRLPLM
no signal	0/3	0/9	KSSQSVLYRSRNKNSVA	WAITRES	QQYHRLPLS
39 nM	3/3	2/9	KWSQSVLYESRNKNSVA	WASWRES	QQYHRLPLS
no signal	0/3	0/9	KSSQMVSYESRNKNSVA	WASTRES	QQYHRLPLV
17 nM	3/3	5/9	KSSQSVLYLSRNKNSVA	WASTRDS	QQYNRLPLS
15 nM	3/3	0/9	KCSQLVLLESRNKNSVA	WASTRES	QQYHRLPLS
5.3 nM	3/3	1/9	KSSQGVLYESSNKNSVA	MASTRES	QQYHRLPLS
38 nM	3/3	2/9	KSSQSVLYESRNKNSVA	WASTREK	DQYHRLPQS
no signal	0/3	0/9	KSSQSVLYESRNKNSVA	WESTRES	QQYHRLPRS
no signal	0/3	1/9	KSSQSVLYESRNKNKVA	WASTKES	QQYHDLPLS
290 nM	3/3	1/9	KSSQMVLYESRNSNSVA	WASTRES	QQYHLLPLS
4.5 nM	3/3	6/9	KSSQSVLYESRNKNSVA	QASTRES	QQCWRLPLS
1.4 µM	3/3	4/9	KSSQSVLYESRNKNSVA	WVSTRES	QQYYRLILS
6.5 µM	1/3	1/9	KSSQSVLYESRNDNSVW	WAETRES	QQYHRLPLS
4.2 nM	3/3	6/9	KFSQSVLYESRNFNSVA	WASTRES	QQYHRLPLS
no signal	0/3	0/9	KSSQSVLYESRNKNSVW	WASTRES	QQYVRLPLS
no signal	0/3	0/9	KSSDSVLYESRNKNSVA	WASTRNS	HQYHRLPLS
3.5 µM	1/3	2/9	KSSQSVLYESRNKNSVA	WASTMES	AQYHQLPLS
57 nM	3/3	0/9	KSSQLVLFESRNKNSVA	WDSTRES	QQYHRLPLS
170 nM	3/3	3/9	KSSQSVLYESCNKNSVA	WASTRES	IQRHRLPLS
13 µM	2/3	2/9	KSSQSVLYESRCKNSVP	WASTRES	QQYHRLPLM
65 µM	2/3	2/9	KSSQSVLYESRNKNSSW	WASTRES	VQYHRLPLS
no signal	0/3	0/9	KSSQSVLYEWRNKNSVA	WASTRES	QQYHRLILE
1.4 µM	3/3	1/9	KSSQSVLYESRNKNYVA	FASTRNS	QQYHRLPLS
2.1 µM	2/3	5/9	KCYQSVLYESRNKNSVA	WASTFES	QQYHRLPLS
460 nM	3/3	2/9	KASQSVLYESRNWNSVA	WASTAES	QQYHRLPLS
16 nM	3/3	4/9	KYSQSVLYESRNKRSVA	WASTRES	QQYFRLPLS
no signal	0/3	1/9	KSSQSVLYEDRNKNSVA	WASTRES	CQYHRLPLS
91 µM	2/3	3/9	KSSQSVLYESRNKFSVA	WASTREF	QQYHRLPCS
no signal	0/3	1/9	KSSQVVLYWSRNKNSVA	WASTRES	QQYHRLPLS
440 nM	1/3	1/9	KSSQSVLYEWRNKNKVA	WASTRES	QQYHRLPLS
93 nM	3/3	4/9	QSSQSVLSEKRNKNSVA	WASTRES	QQYHRLPLS
3.5 µM	3/3	0/9	KSSQSVLYESRNKNSVA	WAITRES	QQYHRLDLA
no signal	0/3	0/9	LSSQSVLYESRNKNSVA	WASTRES	QPYHQLPLS
17 nM	3/3	8/9	KSSQSVLYESRNKNSVA	WASVRRS	QQAHRLPLS
2.8 nM	3/3	3/9	KSSQSVLSESRNSNSVA	WASTRES	QQYHHLPLS
11 µM	2/3	3/9	KSSQSVLYESRNKNSVF	WASTRES	QQYHGCPLS
27 µM	1/3	1/9	KSSQSVLYEFRNKNSVC	WASTRES	WQYHRLPLS
25 µM	1/3	1/9	KSSQSGLYESRNKNSLA	WASTRES	WQYHRLPLS
no signal	0/3	0/9	KSSQSVLYECRNKNSVA	WASGRES	QQYHRLPLF
36 nM	3/3	6/9	KSNQSVLYESRNKYSVA	WASTRES	QAYHRLPLS
530 pM	3/3	3/9	KSIQSVRYESRNKNSVA	EASTRES	QQYHRLPLS
no signal	0/3	2/9	KSSYCVLYESRNKNSVA	WASTRES	QQYHRIPLS
30 µM	1/3	0/9	KSSQSVLYEVRNKNSVA	VAQTRES	QQYHRLPLS
no signal	0/3	4/9	KSSQSVLAESRNKNSVA	WISTRES	QQYHRCPLS
7.5 µM	1/3	0/9	KSSQSVLYISRNKNSVA	WASTRES	QMYHVLPLS
210 nM	3/3	0/9	VSSQSVLYESRNKNSVA	WDSTRES	QQYHRFPLS
4.5 nM	3/3	3/9	KSSQSVLYESRNKNSVA	WASTRES	QQYHRSPLQ
22 µM	1/3	5/9	KSSQSVLYESRNKNSVV	WASTNES	QQYHRLPHS
69 µM	2/3	4/9	KSSQSVHYESRNKNSVN	WASTMES	QQYHRLPLS
25 µM	2/3	0/9	KSSQSVLYESRNKRSVA	WACTRES	QQYHRLPLQ
no signal	0/3	2/9	KTSQSVLYCSRNKNSVA	WRSTRES	QQYHRLPLS
no signal	0/3	0/9	KSSQSVLYISRNKNSVA	WASTRES	QQPHRLKLS

Background: pairings of library AAYL50 with three empty control strains gave a value in 18% of cases (median 15 µM, 5th percentile 970 nM). Values in that range, when seen in few replicates, are hard to tell from nonspecific mating. For each scFv, signals with the empty controls are counted beside the result.
Parent in this assay: reference entry 4.4 nM, copy in this library 48 nM.